OPERA 2.9 data: logP (octanol/water) values

Data: OPERA 2.9 data sets, kmansouri/OPERA on GitHub.

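The numbers are reported measurements, compiled and curated for the OPERA QSAR suite. One number stands for a compound and property, with no spread given. Method and conditions are not stated for these values. Where a salt, mixture or single isomer is drawn, the source does not say that exactly this form was tested. Unmarked limits or estimates from the upstream databases cannot be ruled out.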

The octanol-water partition coefficient is given as log10; larger values mean a more lipophilic compound. The databases behind each value are named after "via".

* O=S(=O)([O-])c1ccc2[nH]c(-c3ccccc3)c(/N=N/c3ccccc3S(=O)(=O)c3ccccc3)c2c1.[Na+]: log Kow -0.3 (via eChemPortal)
* CCCCCCCCCCCCCCCCCCCCCCO: log Kow 8.3 (via eChemPortal)
* Nc1ccc2cc(S(=O)(=O)[O-])cc(O)c2c1/N=N/c1ccc(Nc2nc(NCCS(=O)(=O)[O-])nc(N(CCO)CCO)n2)cc1S(=O)(=O)[O-].[Na+].[Na+].[Na+]: log Kow -2.81 (via eChemPortal)
* CC[P+](c1ccccc1)(c1ccccc1)c1ccccc1.[Br-]: log Kow -0.044 (via eChemPortal)
* CCCCCCCS: log Kow 3.7 (via PubChem)
* CCCCC(=O)O[C@]1(C(=O)CO)CC[C@H]2[C@@H]3CCC4=CC(=O)C=C[C@]4(C)[C@H]3C(=O)C[C@@]21C: log Kow 3.82 (via OCHEM)
* O=C(O)c1c(O)cc(O)cc1O: log Kow 1.62 (via OCHEM)
* COB1OB(OC)OB(OC)O1: log Kow -0.93 (via eChemPortal)
* O=[N+]([O-])c1ccc(Cl)nc1Cl: log Kow 1.96 (via OCHEM)
* O=C([O-])C(O)C(O)C1OB(O)OC1CO.O=C([O-])C(O)C(O)C1OB(O)OC1CO.[Ca+2] (stereo not given): log Kow -0.87 (via eChemPortal)
* O=C(c1ccc(OCCN2CCCCC2)cc1)c1c(-c2ccc(O)cc2)sc2cc(O)ccc12: log Kow 5.2 (via PubChem)
* Br.CN(Cc1cc(Br)cc(Br)c1N)C1CCCCC1: log Kow 0.57 (via eChemPortal)
* CCCCn1c(O)c(N=Nc2ccc(C(=O)OCc3ccccc3)cc2)c(C)c(C#N)c1=O: log Kow 5.87 (via eChemPortal)
* O=C([O-])C1=NN(c2ccc(S(=O)(=O)[O-])cc2)C(=O)\C1=C/C=C/C=C/c1c(C(=O)O)nn(-c2ccc(S(=O)(=O)O)cc2)c1O.[K+].[K+]: log Kow -3.1 (via eChemPortal)
* O=S(=O)([O-])c1cccc(/N=N/c2ccc(Nc3ccccc3)cc2)c1.[Na+]: log Kow 0.137 (via eChemPortal)
* CCCCOC(=O)/C=C\C(=O)OCCCC: log Kow 3.39 (via eChemPortal)
* CCCCc1ccc2[n-]nnc2c1.[Na+]: log Kow 0.65 (via eChemPortal)
* CS(=O)(=O)c1ccc(C(=O)Nc2ccc(Cl)c(-c3ccccn3)c2)c(Cl)c1: log Kow 2.7 (via PubChem)
* CCCCCCC(O)CCCCCCCCCCC(=O)OCC(CC)CCCC (stereo not given): log Kow 9.776 (via eChemPortal)
* NCCCNCCNCCCN: log Kow -1.55 (via eChemPortal)
* CC(=O)OC/C=C(C)/C=C/C=C(C)/C=C/C1=C(C)CCCC1(C)C: log Kow 9.4 (via eChemPortal)
* CC(C)(C)N(CC(=O)c1ccc(O)c(CO)c1)Cc1ccccc1.Cl: log Kow -0.77 (via eChemPortal)
* CC(=O)Nc1cc(Nc2nc(Nc3ccc(/N=N/c4cccc(S(=O)(=O)[O-])c4)c(NC(C)=O)c3)nc(N3CCOCC3)n2)ccc1/N=N/c1cccc(S(=O)(=O)[O-])c1.[Na+].[Na+]: log Kow -2.05 (via eChemPortal)
* COc1ccccc1N1CCN(CCNC(=S)C2CCCCC2)CC1: log Kow 3.7 (via OCHEM)
* CCNc1ccc(C)cc1: log Kow 2.32 (via OCHEM)
* Cc1cnc(/C(O)=N/CCc2ccc(S(N)(=O)=O)cc2)cn1.[HH].[Na+]: log Kow 0.5 (via eChemPortal)
* O=C(OCn1[nH]cc2c(=O)ncnc1-2)c1cccc(Cn2ccnc2)c1: log Kow 0.97 (via OCHEM)
* CCc1ccc(-c2ccccc2)cc1: log Kow 5.08 (via OCHEM)
* CCCCCCC(CO)CCCC (stereo not given): log Kow 5.5 (via eChemPortal)
* O=C([O-])c1ccccc1-c1c2ccc3cc([O-])ccc3c2oc2c1ccc1cc(=O)ccc12.[Na+].[Na+]: log Kow -1.7 (via eChemPortal)
* ClC1=C[C@@H](Cl)[C@@H](Cl)[C@H](Cl)[C@H]1Cl (relative stereo): log Kow 3.85 (via OCHEM)
* CCOC(=O)C(C)C: log Kow 1.8 (via eChemPortal)
* COc1ccccc1N1CCN(CCCOc2ccc(F)cc2)CC1: log Kow 4.1 (via OCHEM)
* Clc1cccc(Nc2ccccc2)c1: log Kow 3.92 (via OCHEM)
* O=S(=O)(O)c1cccc2cc(Nc3ccccc3)cc(Nc3ccccc3)c12: log Kow 0.81 (via eChemPortal)
* CCN(CC)c1cccc(O)c1: log Kow 2.5 (via eChemPortal)
* CC(=O)O.CCN=C1C=CC(=C(c2ccc(NCC)c(C)c2)c2ccc(NCC)c(C)c2)C=C1C: log Kow 1 (via eChemPortal)
* CCC1CO1 (stereo not given): log Kow 0.68 (via PubChem, eChemPortal)
* C=CC1CCC(O)C(O)C1 (stereo not given): log Kow 0.63 (via OCHEM)
* CN(N=O)C(=O)N[C@@H](C=O)[C@@H](O)[C@@H](O)[C@H](O)CO: log Kow -0.89 (via OCHEM)
* CC(C)c1ccc(S(=O)(=O)[O-])cc1.[Na+]: log Kow -1.1 (via eChemPortal)
* C=COCC(CC)CCCC (stereo not given): log Kow 5.04 (via OCHEM)
* O[C@H]1[C@H](O)[C@@H](O)[C@H](O)[C@@H](O)[C@H]1O: log Kow -2.08 (via eChemPortal)
* O=S(=O)([O-])OCCS(=O)(=O)c1ccc(/N=N/c2c(S(=O)(=O)[O-])cc3cc(Nc4nc(Cl)nc(Cl)n4)ccc3c2O)cc1.[Na+].[Na+]: log Kow -0.5 (via eChemPortal)
* COC(=O)[C@@H]1CC2=CC(=O)CC[C@]2(C)[C@H]2CC[C@@]3(C)[C@@H](CC[C@@]34CCC(=O)O4)[C@H]12: log Kow 1.94 (via OCHEM)
* O=C([O-])C1=NN(c2ccc(S(=O)(=O)[O-])cc2)C(=O)C1/N=N/c1ccc(NC(=O)c2ccc3nc(Cl)c(Cl)nc3c2)cc1S(=O)(=O)[O-].[Na+].[Na+].[Na+] (stereo partly drawn): log Kow -4.7 (via eChemPortal)
* CCCCOC=O: log Kow 1.32 (via PubChem)
* Cc1ccc(S(=O)(=O)N(C)Cc2ccc(Nc3cc(S(=O)(=O)[O-])c(N)c4c3C(=O)c3ccccc3C4=O)cc2)cc1.[Na+]: log Kow -1 (via eChemPortal)
* CCCCC(CC)CO (stereo not given): log Kow 3.1 (via OFMPub, eChemPortal)
* CCCOC(=O)c1ccco1: log Kow 2.36 (via OCHEM)
* O=S(=O)([O-])CO.[Na+]: log Kow -4.6 (via eChemPortal)
* CC(C)COC(=O)c1cc(=O)[nH]c(=O)[nH]1: log Kow 1.01 (via OCHEM)
* ClCCCCCCCCCl: log Kow 4.56 (via OCHEM)
* CC[P+](c1ccccc1)(c1ccccc1)c1ccccc1.[I-]: log Kow -0.044 (via eChemPortal)
* ClC1=C(Cl)[C@@]2(Cl)C(Cl)=C(Cl)[C@@H]3C[C@H]2[C@H]1[C@H]3Cl: log Kow 5.44 (via OCHEM)
* Brc1ccc(OCC2CO2)c(Br)c1 (stereo not given): log Kow 3.518 (via eChemPortal)
* CC(=O)N1CSCC1C(=O)O (stereo not given): log Kow -0.5 (via eChemPortal)
* C=COC: log Kow 0.42 (via eChemPortal)
* COc1n[nH]c(=O)n1C: log Kow -0.6 (via eChemPortal)
* CCCCc1nc(Cl)c(CO)n1Cc1ccc(-c2ccccc2-c2nnn[nH]2)cc1: log Kow 2.3 (via eChemPortal)
* Cc1ccccc1Nc1nc(Cl)nc(Nc2cc(S(=O)(=O)[O-])cc3cc(S(=O)(=O)[O-])c(/N=N/c4ccccc4S(=O)(=O)[O-])c(O)c23)n1.[Na+].[Na+].[Na+]: log Kow -4.483 (via eChemPortal)
* CCCCCCCCC(CO)CCCCCC (stereo not given): log Kow 6.8 (via eChemPortal)
* Oc1cccc(O)c1O: log Kow 0.985 (via OCHEM)
* CCOCC(C)O (stereo not given): log Kow 1.23 (via eChemPortal)
* CC(=O)[C-](/N=N/c1cc(S(N)(=O)=O)ccc1[O-])C(=O)Nc1ccccc1.CC(=O)[C-](/N=N/c1cc(S(N)(=O)=O)ccc1[O-])C(=O)Nc1ccccc1.[Co+3].[Na+]: log Kow 0.411 (via eChemPortal)
* O=C1C=CC(=O)N1c1cccc(N2C(=O)C=CC2=O)c1: log Kow 0.67 (via eChemPortal)
* CCOCCOCCOC: log Kow 0.365 (via eChemPortal)

The 7 highest values of log Kow among the entries above:

| structure (SMILES) | log Kow | via |
|---|---|---|
| CCCCCCC(O)CCCCCCCCCCC(=O)OCC(CC)CCCC (stereo not given) | 9.776 | eChemPortal |
| CC(=O)OC/C=C(C)/C=C/C=C(C)/C=C/C1=C(C)CCCC1(C)C | 9.4 | eChemPortal |
| CCCCCCCCCCCCCCCCCCCCCCO | 8.3 | eChemPortal |
| CCCCCCCCC(CO)CCCCCC (stereo not given) | 6.8 | eChemPortal |
| CCCCn1c(O)c(N=Nc2ccc(C(=O)OCc3ccccc3)cc2)c(C)c(C#N)c1=O | 5.87 | eChemPortal |
| CCCCCCC(CO)CCCC (stereo not given) | 5.5 | eChemPortal |
| ClC1=C(Cl)[C@@]2(Cl)C(Cl)=C(Cl)[C@@H]3C[C@H]2[C@H]1[C@H]3Cl | 5.44 | OCHEM |